Results on one molecule are retold here after PMC9186491, “Novel Small Molecule Tyrosine Kinase 2 Pseudokinase Ligands Block Cytokine-Induced TYK2-Mediated Signaling Pathways” (Frontiers in Immunology, 2022).

Assay [1] concerns JAK1-dependent IL6-induced phosphorylation of STAT3 (Tyr705) in TF1 cells. Description: JAK cellular selectivity assay, IL6-pSTAT3 (JAK1). To be noted: Homo sapiens, TF-1, read-out: JAK Cellular Selectivity (IC50) IL6-pSTAT3 (JAK1). The assay is classed as cell-based. As to the method: (§1) The cells were then ready for the assay after incubating for 2 hours in a humidified, 5% CO2 cell culture incubator at 37°C. […] The curve fit was generated, and statistical analysis was performed using GraphPad Prism. IC50 values were derived by non-linear regression analysis and defined as the compound concentration at which the response level was reduced to half of its maximum relative to a DMSO control.

In assay [2] the test system is JAK1/3-dependent IL2-induced phosphorylation of STAT5 (Tyr694/699) in Kit225 cells. In words: JAK cellular selectivity assay, IL2-pSTAT5 (JAK1/3). The assay is classed as cell-based. To be noted: Homo sapiens, KIT225, read-out: JAK Cellular Selectivity (IC50) IL2-pSTAT5 (JAK1/3). Here is the method: as §1

Structures are written as SMILES.

Regarding `Cn1cc(Nc2nccc(N3C[C@H]4CC[C@@H](C3)N4C(=O)[C@@H]3CC3(F)F)n2)cn1` [Brepocitinib, reference compound], the figures for the IC50 in assay [1] and in assay [2] were 0.054 ± 0.055 µM and 0.062 ± 0.041 µM, respectively.
